This is a selection; strong and weak results do not stand in their true shares. Active and inactive are the calls of the source.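 Rule for the calls: active = at 10 µM dose, at least 30% inhibition, measured as corrected fluorescence normalized to stimulator and neutral control wells; inactive = the rest.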

Sequences of proteins named here, by UniProt entry; tags and fusion partners are left off.
UniProt Q96SD1, whole entry: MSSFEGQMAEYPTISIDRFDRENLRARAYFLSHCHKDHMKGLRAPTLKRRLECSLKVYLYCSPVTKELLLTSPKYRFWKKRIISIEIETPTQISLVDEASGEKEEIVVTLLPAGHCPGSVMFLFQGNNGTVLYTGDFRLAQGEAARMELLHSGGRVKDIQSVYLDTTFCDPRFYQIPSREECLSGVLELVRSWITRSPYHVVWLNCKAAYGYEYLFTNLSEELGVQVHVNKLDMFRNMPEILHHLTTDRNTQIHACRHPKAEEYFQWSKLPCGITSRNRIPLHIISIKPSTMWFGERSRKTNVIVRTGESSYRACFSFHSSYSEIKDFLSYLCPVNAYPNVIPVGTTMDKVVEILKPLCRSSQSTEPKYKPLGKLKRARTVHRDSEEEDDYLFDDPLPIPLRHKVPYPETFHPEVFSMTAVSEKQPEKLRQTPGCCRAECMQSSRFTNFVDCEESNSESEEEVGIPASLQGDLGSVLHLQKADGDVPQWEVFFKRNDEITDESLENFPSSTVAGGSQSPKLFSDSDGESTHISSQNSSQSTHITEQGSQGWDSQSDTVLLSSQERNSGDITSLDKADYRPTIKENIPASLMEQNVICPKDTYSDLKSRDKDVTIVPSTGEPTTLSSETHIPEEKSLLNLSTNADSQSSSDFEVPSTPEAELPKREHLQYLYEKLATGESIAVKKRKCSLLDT

The target of this test is Protein artemis (Homo sapiens) (UniProt Q96SD1). The test can be described thus: Artemis endonuclease inhibitors, primary screen, biochemical, fluorescence intensity, FAM/BHQ-1 hairpin substrate (AID 686954). The note with it: recombinant Artemis, quenched FAM hairpin cleavage fluorescence; at 10 µM; active compounds read high.
In the case of `CN(C)CCOC(=O)C(O)(c1ccccc1)C1CCCCC1` (stereo not drawn), the inhibition was inactive: -5.45%.
In the case of `CP(=O)(Nc1ccc2c(c1)OCCO2)Oc1ccccc1` (stereo not drawn), the inhibition is inactive: -0.42%.
Then `Cc1ccccc1NP(C)(=O)Nc1ccccc1C`, with inactive: -7.74%.
With `CP(=O)(Oc1ccccc1)N1CCOC1=O` (stereo not drawn), the inhibition was inactive: 0.22%.
As to `COc1ccccc1OP(C)(=O)Nc1c(C)n(C)n(-c2ccccc2)c1=O` (stereo not drawn), the inhibition is inactive: -2.94%.
Take `COc1ccccc1OP(C)(=O)Nc1ccc(C)c(C)c1` (stereo not drawn): the inhibition is inactive: -5.46%.
Turning to `CCc1ccc(OP(C)(=O)O)cc1`, the inhibition was inactive: 1.3%.
Then `CP(=O)(Nc1ccccn1)Oc1ccccc1` (stereo not drawn), with inactive: -4.8%; and `Cc1ccc(NP(C)(=O)Oc2ccccc2)c(C)c1` (stereo not drawn), with inactive: 0.88%; and `COc1ccccc1OP(C)(=O)Nc1ccc(C)cc1` (stereo not drawn), with inactive: -0.3%.
Next, `CP(=S)(Nn1cnnc1)Oc1ccccc1` (stereo not drawn): inactive: 0.81%; `CCOP(C)(=S)SCC(=O)NC(C)C(=O)O` (stereo not drawn): inactive: -8.85%; `Cc1ccc(C)c(NP(C)(=O)Oc2ccccc2)c1` (stereo not drawn): inactive: -4.98%.

Values taken from PubChem BioAssay AID686954 (Sanford-Burnham Center for Chemical Genomics, 2013).
